Among the data in US6472391B2, “Nitrogen-containing heterocyclic compounds” (Millennium Pharmaceuticals, Inc., priority 1996, dated 2002) are IC50 values, retold here.

Amino acid sequences for entries named in this document (tags omitted). Residues count along the entry.
UniProt P09619, 33-1106: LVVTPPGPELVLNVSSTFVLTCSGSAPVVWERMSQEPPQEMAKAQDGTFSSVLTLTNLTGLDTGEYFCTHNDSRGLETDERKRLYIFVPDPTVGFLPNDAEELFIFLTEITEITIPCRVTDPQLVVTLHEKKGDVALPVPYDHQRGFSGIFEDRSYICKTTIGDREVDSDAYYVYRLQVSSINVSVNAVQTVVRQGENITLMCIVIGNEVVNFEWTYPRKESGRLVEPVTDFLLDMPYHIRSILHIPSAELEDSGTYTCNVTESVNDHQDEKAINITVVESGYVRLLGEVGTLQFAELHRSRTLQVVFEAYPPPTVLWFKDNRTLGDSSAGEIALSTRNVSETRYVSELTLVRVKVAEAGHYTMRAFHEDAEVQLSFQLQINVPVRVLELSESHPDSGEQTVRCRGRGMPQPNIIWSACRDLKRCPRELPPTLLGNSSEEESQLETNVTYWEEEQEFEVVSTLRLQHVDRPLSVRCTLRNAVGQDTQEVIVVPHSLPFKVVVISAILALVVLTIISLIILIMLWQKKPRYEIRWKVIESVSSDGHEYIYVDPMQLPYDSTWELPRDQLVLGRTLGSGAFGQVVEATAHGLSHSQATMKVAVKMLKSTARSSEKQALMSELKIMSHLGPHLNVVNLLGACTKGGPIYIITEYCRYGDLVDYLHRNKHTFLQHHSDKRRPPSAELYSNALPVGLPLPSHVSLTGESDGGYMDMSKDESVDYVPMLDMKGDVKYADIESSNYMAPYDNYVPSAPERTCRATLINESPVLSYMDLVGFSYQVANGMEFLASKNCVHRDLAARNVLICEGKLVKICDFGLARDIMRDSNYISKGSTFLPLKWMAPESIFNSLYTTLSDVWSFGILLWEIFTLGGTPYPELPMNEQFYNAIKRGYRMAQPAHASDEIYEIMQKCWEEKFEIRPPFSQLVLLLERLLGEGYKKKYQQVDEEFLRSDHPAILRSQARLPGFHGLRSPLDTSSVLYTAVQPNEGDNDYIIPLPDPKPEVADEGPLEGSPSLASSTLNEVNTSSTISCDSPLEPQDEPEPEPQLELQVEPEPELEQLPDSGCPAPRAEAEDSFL

In this test the target is T1, human β-PDGF receptor (Homo sapiens, UniProt P09619).
T1 construct: expressed in transfected cells; host or cells: Chinese hamster ovary cells (CHO)
In words: Inhibitory effect on phosphorylation of PDGF receptor. It is filed as cell-based. The settings on record: CHO cells expressing human β-PDGF receptor. The procedure:
Test Example 1 Inhibitory Effect on Phosphorylation of PDGF Receptor
The test was carried out according to the method described in the literature [Dah-Shuhn et al., J. Biol. Chem., 266, 413-418 (1991)], using Chinese hamster ovary cells (CHO) wherein human β-PDGF receptor cDNA was introduced and expressed.

Broadly, the IC50 is the concentration needed to halve the response being measured.

For `O=C(Nc1ccc(Oc2ccccc2)cc1)N1CCN(c2ncnc3ccccc23)CC1` [Compound 104, N-(4-Phenoxyphenyl)-4-(4-quinazolinyl)-1-piperazinecarboxamide], half-maximal inhibition (IC50) was put at 340 nM.

`CCNc1cc2ncnc(N3CCN(C(=O)Nc4ccc(Oc5ccccc5)cc4)CC3)c2cc1[N+](=O)[O-]` [Compound 109, 4-(7-Ethylamino-6-nitro-4-quinazolinyl)-N-(4-phenoxyphenyl)-1-piperazinecarboxamide]: the half-inhibitory concentration (IC50) came out at 410 nM.

Regarding `O=C(Nc1ccc(Oc2ccccc2)cc1)N1CCN(c2ccnc3cc(Cl)ccc23)CC1` [Compound 115, 4-(7-Chloro-4-quinolyl)-N-(4-phenoxyphenyl)-1-piperazinecarboxamide], the IC50 was 360 nM.

The compound `Cn1c(=O)n(C)c2cc3c(N4CCN(C(=O)Nc5ccc(Oc6ccccc6)cc5)CC4)ncnc3cc21` [Compound 121, 4-(1,3-Dihydro-1,3-dimethyl-2-oxo-2H-imidazo[4,5-g]quinazolin-8-yl)-N-(4-phenoxyphenyl)-1-piperazinecarboxamide] came in with a half-inhibitory concentration (IC50) of 120 nM.

Turning to `CCn1nnc2cc3c(N4CCN(C(=O)Nc5ccc(Oc6ccccc6)cc5)CC4)ncnc3cc21` [Compound 124, 4-(3-Ethyl-3H-1,2,3-triazolo[4,5-g]quinazolin-8-yl)-N-(4-phenoxyphenyl)-1-piperazinecarboxamide], the IC50 amounted to 280 nM.

Turning to `O=C(Nc1ccc(Oc2ccccc2)cc1)N1CCN(c2ncnc3cc4c(cc23)OCO4)CC1` [Compound 367, 4-(6,7-Methylenedioxy-4-quinazolinyl)-N-(4-phenoxyphenyl)-1-piperazinecarboxamide], the IC50 stood at 200 nM.

In turn, `O=C(Nc1ccc(Oc2ccccc2)cc1)N1CCN(c2ccnc3ccccc23)CC1` [Compound 394, N-(4-Phenoxyphenyl)-4-(4-quinolyl)-1-piperazinecarboxamide] registered an IC50 of 190 nM.

Compound `CCOC(=O)c1cnc2cc(OC)c(OC)cc2c1N1CCN(C(=O)Nc2ccc(Oc3ccccc3)cc2)CC1` [Compound 408, 4-(6,7-Dimethoxy-3-ethoxycarbonyl-4-quinolyl)-N-(4-phenoxyphenyl)-1-piperazinecarboxamide] showed an IC50 of 210 nM.

The compound `O=C(Nc1ccc(Oc2ccccc2)cc1)N1CCN(c2nncc3ccccc23)CC1` [Compound 414, N-(4-Phenoxyphenyl)-4-(1-phthalazinyl)-1-piperazinecarboxamide] yielded a 50% inhibitory concentration (IC50) of 930 nM.

Compound `COc1cc2nncc(N3CCN(C(=O)Nc4ccc(Oc5ccccc5)cc4)CC3)c2cc1OC` [Compound 426, 4-(6,7-Dimethoxy-4-cinnolinyl)-N-(4-phenoxyphenyl)-1-piperazinecarboxamide] came in with an IC50 of 1120 nM.
